Only some compounds are listed: those with a hit (about 0.43% of all), similar ones and a draw of the others.
HCMV UL50-53 inh – cytomegalovirus nuclear egress complex inhibition; HTRF UL50-UL53 interaction, normalized percent inhibition; inhibition, % (no concentration beside the values); hit rate 0.15% among 190,000; in the data active = inhibition above about 27%, passing the limit was not always enough
GIV Gai3 FP – inhibitors of GIV GBA-motif binding to rat Galpha-i3; P08753; Galpha-i3/FITC-GIV peptide fluorescence polarization, 90 min; stronger effect = lower value; scaled: aluminum fluoride 0%, vehicle 100%; percent of control (FP), % (no concentration beside the values); actives 0.42% (n = 210,000); AID 1224905;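 active means replicate mean at 85% of control or lower, very high polarization wells dropped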;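 further: wells of about 15 µL received 100 nL stock; the first replicate is given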
GIV Gai FP conf – confirmation of inhibitors of GIV binding to rat Galpha-i3; shares compounds with GIV Gai3 FP; FITC-GIV peptide binding to Galphai3, fluorescence polarization; active compounds read low; fluorescence polarization, mP at 100 µM; hit rate 38% among 580; AID 1259350;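 active = inhibition score of 15 or more, meaning 100 minus mean polarization as percent of control over three replicates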;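 also: lower mP means peptide displaced from Galphai3 so more inhibition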
GIV Gai AS conf – GIV-Galpha-i3 inhibition, AlphaScreen confirmation; AlphaScreen counts at 100 µM; shares compounds with GIV Gai3 FP; AlphaScreen Galphai3-GIV binding, purified proteins, 90 min; active compounds read low; hit rate 39% among 580;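 active = inhibition score at or above a set limit, where the score is 100 minus the three-replicate mean percent of control signal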
* marks the source's active call; other numbers are inactive results; i = inactive; . = not tested or not shown.

| compound | HCMV UL50-53 inh | GIV Gai3 FP | GIV Gai FP conf | GIV Gai AS conf |
| --- | --- | --- | --- | --- |
| COn1c(C)c(C)c2c3no[n+]([O-])c3ccc21 | -8 | 72* | 60 | 22452* |
| Cc1c(C)[n+]([O-])c2ccc3c(non3O)c12 | -98 | 94 | . | . |
| CCC(C)(C)NC(=O)c1ccc2c(=O)n3c(nc2c1)CCC3 | -2 | . | . | . |
| O=C(CCN1C(=O)/C(=C/c2ccc3c(c2)OCO3)SC1=S)Nc1ccccc1 | -8 | . | . | . |
| O=C(CCN1C(=O)/C(=C/c2ccc3c(c2)OCO3)SC1=S)NC1=NCCS1 | -51 | 84* | 60 | 47879 |
| CCOc1cc(C)[nH]n1 | 3 | 99 | . | . |
| CC(C)c1ccc(S(=O)(=O)Nc2cc(C(=O)O)ccc2N(C)C)cc1 | 11 | 103 | . | . |
| CCN(CCN(C)C)c1ncc(NS(=O)(=O)c2cc(C)c(C)cc2C)cc1C(=O)O | -42 | 58* | 43* | 27195 |
| CCN(CCN(C)C)c1ncc(C(=O)O)cc1NS(=O)(=O)c1ccc(C(C)C)cc1 | -18 | 60* | 41* | 35632 |
| CCN(CCN(C)C)c1ncc(C(=O)O)cc1NS(=O)(=O)c1ccc(F)c(F)c1 | -13 | 61* | 36* | 38193 |
| CCN(CC)c1ncc(C(=O)O)cc1NS(=O)(=O)c1c(C)cc(C)cc1C | -21 | 81* | 71 | 22183 |
| CCN(CC)c1ncc(NS(=O)(=O)c2cc(C)c(C)cc2C)cc1C(=O)O | -40 | 107 | . | . |

Six entries from above, sorted by molar mass, high to low.
| compound | HCMV UL50-53 inh | GIV Gai3 FP | GIV Gai FP conf | GIV Gai AS conf |
| --- | --- | --- | --- | --- |
| CCN(CCN(C)C)c1ncc(C(=O)O)cc1NS(=O)(=O)c1ccc(C(C)C)cc1 | -18 | 60* | 41* | 35632 |
| CCN(CCN(C)C)c1ncc(C(=O)O)cc1NS(=O)(=O)c1ccc(F)c(F)c1 | -13 | 61* | 36* | 38193 |
| O=C(CCN1C(=O)/C(=C/c2ccc3c(c2)OCO3)SC1=S)Nc1ccccc1 | -8 | . | . | . |
| CC(C)c1ccc(S(=O)(=O)Nc2cc(C(=O)O)ccc2N(C)C)cc1 | 11 | 103 | . | . |
| Cc1c(C)[n+]([O-])c2ccc3c(non3O)c12 | -98 | 94 | . | . |
| CCOc1cc(C)[nH]n1 | 3 | 99 | . | . |

Remaining list, next part:
| compound | HCMV UL50-53 inh | GIV Gai3 FP | GIV Gai FP conf | GIV Gai AS conf |
| --- | --- | --- | --- | --- |
| CCCCN(C)c1ncc(C(=O)O)cc1NS(=O)(=O)c1cc(F)ccc1F | -46 | 112 | . | . |
| Cc1cc(C)cc(S(=O)(=O)Nc2cc(C(=O)O)cnc2N(CC(C)C)CC(C)C)c1 | -34 | 117 | . | . |
| CCCCNC(=O)CC1(CC2=NS(=O)(=O)c3ccccc3N2)CCCC1 | -13 | 105 | . | . |
| CN(Cc1ccccc1)C(=O)c1ccc(Oc2ccnc(-c3ccc(F)cc3)n2)cc1 | . | 99 | . | . |
| CC(C)Nc1ncnc2c1cnn2C | 4 | 96 | . | . |
| C#C[C@@]1(OC(C)=O)CC[C@H]2[C@@H]3CCC4=CC(OC(C)=O)CC[C@@H]4[C@@H]3CC[C@@]21C (stereo partly drawn) | -14 | . | . | . |
| COc1ccc(-c2noc(CSCC(=O)N3CCN(c4ccccc4OC)CC3)n2)cc1OC | -18 | 99 | . | . |
| CN(C)CCCn1c(N)nc2ccccc21 | -22 | 96 | . | . |
| CNC(=O)c1ccccc1-c1nc(-c2ccc(Cl)cc2)no1 | -14 | 101 | . | . |
| Cc1ccc2c(c1)NC(=O)C(C(=O)Nc1ccccc1F)O2 (stereo not drawn) | . | 100 | . | . |
| CN1CCN(c2ccc(C(=O)O)cc2NS(=O)(=O)c2ccccc2)CC1 | -9 | 112 | . | . |
| CN(C)c1ncc(C(=O)O)cc1NS(=O)(=O)c1ccccc1 | -38 | 49* | 36* | 8377* |
| COc1ccc(/C=C2\SC(=O)N(CCC(=O)Nc3c(C)n(C)n(-c4ccccc4)c3=O)C2=O)cc1 | -7 | 106 | . | . |
| COc1ccc(/C=C2/SC(=S)N(CCC(=O)Nc3c(C)n(C)n(-c4ccccc4)c3=O)C2=O)cc1 | -15 | 57* | 75 | 43904 |
| CC(C)(C)C(=O)C1C2C3COC(O3)C(=O)C2C2C=Cc3ccccc3N21 (stereo not drawn) | i | 100 | . | . |
| CC(=O)[C@@H]1[C@H]2C3COC(O3)C(=O)[C@@H]2[C@H]2C=Cc3ccccc3N21 (stereo partly drawn) | . | 80* | 51* | 7239* |
| CC(Sc1ccc(F)cc1)C(=O)NC(N)=O (stereo not drawn) | -24 | . | . | . |
| O=C(N/N=C/c1ccc2c(c1)OCO2)c1ccccc1 | -79 | 106 | . | . |
| CCNC(=O)N1CCCC(c2cccc(C(=O)NCCCN3CCCCC3)c2)C1 (stereo not drawn) | -15 | 104 | . | . |
| COCCNC(=O)c1cc(-c2cccc(OC)c2)no1 | -11 | 99 | . | . |
| O=C1C(c2ccnc3ccccc23)=C(O)c2ccccc21 | -40 | 64* | 76 | 34509 |
| O=C1C(=O)c2ccccc2C(O)=C1c1ccccc1F | -109 | 96 | . | . |
| COc1ccc(-c2noc(CCCC(=O)Nc3nccs3)n2)cc1 | -18 | 91 | 65 | 44685 |
| CNC(=O)CCCc1nc(-c2ccc(OC)cc2)no1 | -6 | 101 | . | . |
| CCCC(C(=O)O)N1C(=O)/C(=C/c2ccc(C)cc2)SC1=S (stereo not drawn) | -16 | . | . | . |
| CCCCC(C(=O)O)N1C(=O)/C(=C/c2cccnc2)SC1=S (stereo not drawn) | -45 | 83* | 72 | 35991 |
| CC1=C(C(=O)Nc2ccccc2)C2(CCCCC2)C(C#N)=C(SCC(=O)Nc2nccs2)N1 | -7 | . | . | . |
| COc1ccc(/C=c2\sc3ncnn3c2=O)cc1 | -36 | . | . | . |
| CCN(CC)c1ccc(/C=c2\sc3ncnn3c2=O)cc1 | . | 57* | 35* | 49389 |
| CC1=CC(=C2C(=O)c3ccccc3C2=O)C=C(C)N1CCO | -52 | 91 | . | . |
| CC1=CC(=C2C(=O)c3ccccc3C2=O)C=C(C)N1C(C)C | -113 | 73* | 71 | 40071 |
| C=CCN(CC=C)Cc1ccc(C(=O)OC)o1 | 5 | 80* | 75 | 54407 |
| COC(=O)c1ccc(CC#N)o1 | -9 | 98 | . | . |
| N#C/C(=C\C=C\c1ccco1)C(N)=S | 51 | 78* | 50* | 2145* |
| N#CC(C#N)=C(N)/C(C#N)=C/c1ccco1 | -69 | 112 | . | . |
| CCS(=O)(=O)c1ccc2c(c1)NC(=S)CO2 | -53 | 98 | . | . |
| Cc1ccc(S(=O)(=O)N(C)c2nc3ccccc3nc2NCCCN(C)C)cc1 | -38 | . | . | . |
| Cc1cc2c(cc1C)N(C(=O)CCC1CCCCC1)C(C)(C)c1ssc(=S)c1-2 | . | 109 | . | . |
| Cc1c(C=Nc2ccc(Cl)cc2)c(O)n(C)c(=O)c1C#N | -35 | 108 | . | . |
| Cc1c(C=Nc2ccc(SC#N)c(Cl)c2)c(O)[nH]c(=O)c1C#N | -16 | 49* | 74 | 40787 |
| Cn1cc2c3c(cccc31)CN(C(=O)NCC1CCCO1)CC2 (stereo not drawn) | . | 92 | . | . |
| COCCn1cc2c3c(cccc31)CN(C(=O)NCC1CCCO1)CC2 (stereo not drawn) | . | 81* | 60* | 20045 |
| CCOc1ccccc1-c1c(C#N)c(N)nc(OC)c1C#N | -13 | 103 | . | . |
| CCN(CC)c1ccc(-c2c(C#N)c(N)nc(OC)c2C#N)cc1 | -22 | 31* | 84 | 47104 |
| O=C(NCc1ccccc1)NC1(C(F)(F)F)Oc2ccccc2O1 | . | 97 | . | . |
| O=C(C1CCCCC1)N1CCN(c2cc(C(F)(F)F)nc3ccccc23)CC1 | 11 | 112 | . | . |
| O=C(O)CSCC(=O)N1CCN(c2cc(C(F)(F)F)nc3ccccc23)CC1 | -48 | 91 | 72 | 48255 |
| Cn1ccnc1SC(C(=O)Nc1ccccc1)C(=O)Nc1ccccc1 | 4 | 105 | . | . |
| CC1=NN(c2cccc(C(F)(F)F)c2)C(=O)C1 | -12 | . | . | . |
| CC1=NN(c2cc(S(=O)(=O)O)c3cccc(S(=O)(=O)O)c3c2)C(=O)C1 | . | 59* | 60 | 2889* |
| Nc1nonc1C(=O)NCCN=Cc1ccccc1O | -2 | 106 | . | . |
| Nc1nonc1C(=O)NN=c1c(=O)c2ccccc2c1=O | -20 | 80* | 59 | 25933* |
| Cc1cccc(NC(=O)C(F)(F)C(F)(F)C(F)(F)F)n1 | 4 | 65* | 77 | 31955 |
| Cc1cccc(NC(=O)c2ccco2)n1 | -9 | 108 | . | . |
| CSc1nc2ccccc2n1C | 16 | . | . | . |
| Cc1nn(-c2ccccc2)c2nc(Cl)c(C3N=C(N)Nc4nc5ccccc5n43)cc12 (stereo not drawn) | 10 | . | . | . |

Screens from PubChem BioAssay.
